Binding of CDR-mutated scFvs to a peptide of the spike HR2 region

All variants were tested on one target, the spike HR2 peptide PDVDLGDISGINAS (SARS-CoV-2).

Parent: Ab-14, a human scFv built as VH, three GGGGS repeats, VL. Only the CDRs of the light chain vary.
VH: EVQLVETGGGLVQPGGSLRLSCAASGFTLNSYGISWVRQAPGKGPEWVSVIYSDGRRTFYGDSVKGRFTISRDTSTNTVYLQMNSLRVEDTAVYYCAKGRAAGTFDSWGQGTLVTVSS
VL: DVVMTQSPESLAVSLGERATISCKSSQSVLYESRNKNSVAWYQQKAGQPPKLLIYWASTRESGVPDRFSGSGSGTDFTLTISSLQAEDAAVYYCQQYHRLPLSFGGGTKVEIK

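Designed CDR sequences, proposed from the first random library and measured here. Several design methods are mixed in this list. The scFvs were displayed on barcoded MATa yeast, the peptide on MATalpha yeast. The frequency of each diploid, read from paired DNA barcodes, reflects how well the two displayed proteins bind. Scores were corrected for input abundance and mapped to Kd with protein pairs of known affinity run in the same pool. There are six technical replicates.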

Sequences are complete VL domains. Values are apparent Kd, the geometric mean of the replicates that gave a signal; lower means stronger binding. An entry "no signal" has no value in the source: the pair was not observed among the diploids in any replicate. This suggests poor binding but is not conclusive. The authors averaged sequences with at least three values out of six and counted those with two or fewer as poor binders.

| VL | Kd (apparent) | seen in | signal with controls |
|---|---|---|---|
| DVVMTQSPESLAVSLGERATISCKLSQSNLYESRNKNSVAWYQQKAGQPPKLLIYNASTREEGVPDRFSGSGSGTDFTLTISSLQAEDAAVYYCQQYHRLPLSFGGGTKVEIK | 1.6 nM | 6/6 | 1/18 |
| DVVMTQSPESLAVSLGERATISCKFSQSVLSYSRNKNSVAWYQQKAGQPPKLLIYWASTRESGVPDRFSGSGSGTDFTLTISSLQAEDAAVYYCQQYHRLPLSFGGGTKVEIK | 14 nM | 6/6 | 2/18 |
| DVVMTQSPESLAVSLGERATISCKLAYSVPYESRNKNSVAWYQQKAGQPPKLLIYDASTRSSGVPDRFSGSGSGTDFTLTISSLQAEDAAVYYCQQYHRLPLSFGGGTKVEIK | 1.1 nM | 6/6 | 1/18 |
| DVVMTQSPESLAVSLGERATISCKSSQSVLDESRNKNAVAWYQQKAGQPPKLLIYSASTRESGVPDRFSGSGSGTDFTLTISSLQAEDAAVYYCQQYHRLPLSFGGGTKVEIK | 2.1 nM | 6/6 | 3/18 |
| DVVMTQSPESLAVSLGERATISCKLQQSVPYESRNKNSVAWYQQKAGQPPKLLIYGASTRESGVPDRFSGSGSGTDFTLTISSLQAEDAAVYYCQQYHRLPLSFGGGTKVEIK | 390 pM | 6/6 | 1/18 |
| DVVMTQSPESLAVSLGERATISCKLSQSHNYLSRVMNSVAWYQQKAGQPPKLLIYDNSTRESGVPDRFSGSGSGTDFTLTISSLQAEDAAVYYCQQYFRLPLSFGGGTKVEIK | 3.0 nM | 6/6 | 1/18 |
| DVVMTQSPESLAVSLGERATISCKVSEFMKGLMMRTDSIAWYQQKAGQPPKLLIYDNVTRNKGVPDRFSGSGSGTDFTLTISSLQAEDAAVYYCQQYDRLPLSFGGGTKVEIK | 140 nM | 3/6 | 0/18 |
| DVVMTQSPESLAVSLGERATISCKSSQAVLMESRNKNSVAWYQQKAGQPPKLLIYWGSTRESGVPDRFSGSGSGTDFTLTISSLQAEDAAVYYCQQYHRLPLSFGGGTKVEIK | 41 nM | 6/6 | 0/18 |
| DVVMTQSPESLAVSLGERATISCKLSQSTLYDSQNKNSVAWYQQKAGQPPKLLIYNASTRESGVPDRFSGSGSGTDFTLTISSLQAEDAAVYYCQQYHRLPLSFGGGTKVEIK | 540 pM | 6/6 | 0/18 |
| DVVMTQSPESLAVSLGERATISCKVSQSHLYESRNKNSVAWYQQKAGQPPKLLIYDASTRCSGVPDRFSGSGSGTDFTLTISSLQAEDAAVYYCQQYHRLPLSFGGGTKVEIK | 890 pM | 6/6 | 4/18 |
| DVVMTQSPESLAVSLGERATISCQFDLFENYQGMQNANIAWYQQKAGQPPKLLIYGATNRHTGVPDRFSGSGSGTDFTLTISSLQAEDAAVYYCQQYQKLPLSFGGGTKVEIK | 820 pM | 6/6 | 0/18 |
| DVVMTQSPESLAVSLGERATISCKLSQSVLYESRNKNAVAWYQQKAGQPPKLLIYDASTRESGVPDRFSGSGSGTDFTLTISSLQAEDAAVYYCQQYHWLPLSFGGGTKVEIK | 650 pM | 6/6 | 1/18 |
| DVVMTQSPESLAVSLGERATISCALRQSTLAESRNNNSVAWYQQKAGQPPKLLIYGASTRESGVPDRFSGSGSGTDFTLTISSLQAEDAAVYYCQVYHRLYLSFGGGTKVEIK | no signal | 0/6 | 0/18 |
| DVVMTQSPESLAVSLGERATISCKLSQSDLYEDRNKNSVAWYQQKAGQPPKLLIYNASQRESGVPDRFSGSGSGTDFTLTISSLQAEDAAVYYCQQYHRLPLSFGGGTKVEIK | 810 pM | 6/6 | 4/18 |
| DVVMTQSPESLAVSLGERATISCKSSQSVLYESINKNSVAWYQQKAGQPPKLLIYAATTRESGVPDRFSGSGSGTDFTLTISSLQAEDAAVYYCQQYHRLPVSFGGGTKVEIK | 730 nM | 2/6 | 2/18 |
| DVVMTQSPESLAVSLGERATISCKWSQSVLYDSRNKNSVAWYQQKAGQPPKLLIYAASTREMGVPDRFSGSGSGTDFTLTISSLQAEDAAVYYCQQYHRLPLSFGGGTKVEIK | 940 pM | 6/6 | 0/18 |
| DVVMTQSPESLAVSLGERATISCKISQSVLYESRNKNSVAWYQQKAGQPPKLLIYHASTRESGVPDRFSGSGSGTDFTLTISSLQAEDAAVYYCQQYHRLHLSFGGGTKVEIK | 4.5 nM | 6/6 | 0/18 |
| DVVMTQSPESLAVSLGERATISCTLHANIEYGGGMWKSIAWYQQKAGQPPKLLIYDNVQRADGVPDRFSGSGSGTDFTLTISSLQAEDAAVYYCQYYQRLPLGFGGGTKVEIK | 2.4 nM | 6/6 | 0/18 |
| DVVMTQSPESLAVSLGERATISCMISQLYNMGSFAINSVAWYQQKAGQPPKLLIYQASLRNEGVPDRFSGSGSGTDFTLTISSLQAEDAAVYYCQQYDRLPLIFGGGTKVEIK | 46 nM | 6/6 | 0/18 |
| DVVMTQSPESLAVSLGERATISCHLSWSVLYESNNKNSVAWYQQKAGQPPKLLIYNASTRESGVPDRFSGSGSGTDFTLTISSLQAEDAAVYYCQQYHRLPLSFGGGTKVEIK | 880 pM | 6/6 | 1/18 |
| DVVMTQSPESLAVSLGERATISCKLRREADGWNRNEWNIAWYQQKAGQPPKLLIYDADYRGAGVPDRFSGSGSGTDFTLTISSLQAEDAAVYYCQQYFHLPLCFGGGTKVEIK | 73 nM | 5/6 | 0/18 |
| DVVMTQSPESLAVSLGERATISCKLSQLFYKEMKNKNNVAWYQQKAGQPPKLLIYEMTTRGSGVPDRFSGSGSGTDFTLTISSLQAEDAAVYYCQQYDRLPLSFGGGTKVEIK | 70 nM | 6/6 | 1/18 |
| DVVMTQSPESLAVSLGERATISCKMSQGVLIESTNQNSVAWYQQKAGQPPKLLIYWASTRESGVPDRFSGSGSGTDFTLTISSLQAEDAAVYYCQQYHRLPLSFGGGTKVEIK | 28 nM | 6/6 | 0/18 |
| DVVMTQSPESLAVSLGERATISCKHSQSVLYESRNKNSVAWYQQKAGQPPKLLIYWASTRESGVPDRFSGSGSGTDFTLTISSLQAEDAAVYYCQQYHRLPPSFGGGTKVEIK | no signal | 0/6 | 0/18 |
| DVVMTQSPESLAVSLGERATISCMFLKEDFQELAAKNAIAWYQQKAGQPPKLLIYNAREVVTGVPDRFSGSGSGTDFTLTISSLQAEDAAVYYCQHYFRLPLVFGGGTKVEIK | 2.4 nM | 6/6 | 0/18 |

Repeated from above, the 2 best binders with a signal in all replicates:

{"VL": "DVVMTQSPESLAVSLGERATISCKLQQSVPYESRNKNSVAWYQQKAGQPPKLLIYGASTRESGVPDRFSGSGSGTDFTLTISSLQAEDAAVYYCQQYHRLPLSFGGGTKVEIK", "Kd (apparent)": "390 pM", "seen in": "6/6", "signal with controls": "1/18"}
{"VL": "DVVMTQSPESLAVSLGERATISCKLSQSTLYDSQNKNSVAWYQQKAGQPPKLLIYNASTRESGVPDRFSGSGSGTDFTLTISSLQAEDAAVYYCQQYHRLPLSFGGGTKVEIK", "Kd (apparent)": "540 pM", "seen in": "6/6", "signal with controls": "0/18"}

The parent sequence was in this pool as ten entries: three were never detected, three once, and four in most replicates, with averages from 2.2 nM to 240 nM. A sequence measured in both rounds can read differently, since the two assays cover different ranges. Three control strains display no target. For all light chain designs, 4% of the pairings with them gave a signal, with a median of 430 nM and one signal in twenty below 38 nM, so weak values seen in few replicates may be background. Also given: how often the same scFv was detected with the empty control strains.

The measurements come from Li et al. 2023 (doi:10.1038/s41467-023-39022-2) through the FLAb antibody collection.